System: Bacillus subtilis
Test: Inhibition of Bacillus subtilis PCI219 spore germination, expressed as log 1/I50
Format: functional

Question: `Oc1ccccc1` [PHENOL] was tested. Which Log 1/I50 did it give?
Answer: The Log 1/I50 was 2.82 1/M.

Source: ChEMBL document CHEMBL1122024, “Quantitative structure-inhibitory activity relationships of phenols and fatty acids for Bacillus subtilis spore germination” (J Med Chem, 1982)
